{"source": "patent US10308938B2", "about": "“Compositions and methods to activate or inhibit toll-like receptor signaling” (priority 2014, dated 2019)", "key": {"[1]": {"tested_on": "memory T cells", "experiment": "IMQ pretreatment, washout, rest and restimulation with anti-CD3 and anti-CD28", "conditions": "upon IMQ pretreatment", "description": "Enzyme-linked immunosorbent assay.\nTo determine if pretreatment of CD4^+ T cells with IMQ would be sufficient to diminish their subsequent cytokine secretion and proliferative response to a full stimulation, memory T cells were pre-treated with IMQ for 2 hours and rested for 12 hours after washout to remove traces of IMQ and then stimulated with anti-CD3 and anti-CD28 for 3 days."}, "[2]": {"tested_on": "CD4^+ T cells", "conditions": "concentrations up to 15 μg/ml IMQ; 4 days"}}, "data": [{"smiles": "CC(C)Cn1cnc2c(N)nc3ccccc3c21", "note": "[Imiquimod]", "values": [{"measurement": "cell viability", "setting": "[1]", "result": "No significant changes"}, {"measurement": "cell viability", "setting": "[2]", "result": "no effect"}]}]}
